Measured values as given in patent US12135326B2 (priority 2019, dated 2024).

Biological target: ClyA-RR nanopore (Salmonella typhi, UniProt Q8Z727, C285S/C87A/D64R/E103G/F166Y/I203V/K294R/L99Q/S110R)
Assay: DOP recording of DNA translocation through ClyA-RR nanopore
Conditions: 2.25 M KCl cis, 1.5 M CaCl2 trans

## TTGGCATGTCAGAATGTTAGAATGTTAGAATGTTAGAATGTTAGAATGTTAGAATGTTTCAGATCTCACTATCAAAAA
2 μM in droplet
  mean value of % F (blockade level % Fb, center value±FWHM): 0.583±0.014
electrode-free DOP
  fluorescence emission characteristics with ClyA-RR (in words): different percentage blockade depths and long event dwell time
